According to ChEMBL document CHEMBL5518239, “Recent Advances on Small-Molecule Inhibitors of Lipocalin-like Proteins” (J Med Chem, 2024):

Assay: Selectivity index, ratio of Ki for displacement of fluorescent probe DAUDA from FABP3 (unknown origin) to Ki for displacement of fluorescent probe ANS from FABP7 (unknown origin)

Ratio Ki: 0.83
SMILES: O=C(O)[C@H]1[C@H](c2ccccc2)[C@H](C(=O)Oc2cccc(C3=CCOCC3)c2)[C@H]1c1ccccc1
